## Apparent affinities of Ab-91 variants for a coronavirus HR2 peptide

Data: MIT Lincoln Laboratory AlphaSeq set, Engelhart et al. 2022, doi:10.1038/s41597-022-01779-4, as distributed in FLAb.

Antigen: PDVDLGDISGINAS, a 14-residue peptide of the SARS-CoV-2 spike HR2 region.

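The library (AAYL51) carries one to three amino acid substitutions per variant, with no insertions or deletions. AlphaSeq pools MATa yeast showing the antibodies with MATalpha yeast showing the peptide. The frequency of each diploid, read from paired DNA barcodes, reflects how well the two displayed proteins bind. Scores were corrected for input abundance and mapped to Kd with protein pairs of known affinity run in the same pool. The assay was run in three technical replicates.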

Each scFv is VL, the linker GGGGSGGGGSGGGGS, VH, as in the parent Ab-91, and differs from it in the CDRs of the heavy chain only.
VL: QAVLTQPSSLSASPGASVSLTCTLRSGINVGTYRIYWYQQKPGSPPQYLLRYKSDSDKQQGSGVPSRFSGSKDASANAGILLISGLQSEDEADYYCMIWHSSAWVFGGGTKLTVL
VH: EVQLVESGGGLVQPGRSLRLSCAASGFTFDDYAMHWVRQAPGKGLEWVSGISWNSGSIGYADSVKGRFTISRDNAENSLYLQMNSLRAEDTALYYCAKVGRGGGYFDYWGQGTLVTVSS

Changes read parent residue, position, new residue, counted from the first residue of the VH shown.
Every variant below is changed at W53 of the VH (sequential numbering).
The read-out is the apparent dissociation constant on a log10 scale (nM): the lower, the stronger.
A mean of the replicates is given; it leaves out those without a signal.
An entry "not detected" has no value in the source: the pair was not observed among the diploids in any replicate. This suggests poor binding but is not conclusive.
Order: sorted from the lowest average up, undetected variants last.
Three control strains display no target. For library AAYL51, 21% of the pairings with them gave a signal, with a median of 4.54 and one signal in twenty below 3.26, so weak values seen in few replicates may be background. The control count says in how many pairings with the empty strains this scFv gave a signal.

changes	mean, log10 nM	seen in	control signals
Y32T/W53H	0.52	3/3	2/9
W53A/N54Q/Y105N	0.59	3/3	2/9
W53T/I58M	0.76	3/3	3/9
D31N/W53V/A61C	1.10	3/3	3/9
G26D/D30H/W53T	1.33	3/3	0/9
T28Y/W53I/R101H	1.96	1/3	1/9
W53G/Y60F/Y108S	1.97	3/3	1/9
W53P/N54H	3.07	3/3	3/9
W53H	3.09	3/3	2/9
W53N/V64C/R101D	3.44	1/3	0/9
W53D/G102N/Y108D	3.46	1/3	0/9
W53I/G56V/D107A	3.48	1/3	0/9
W53R/A61M/Y108K	3.53	3/3	3/9
W53N/S55T/S57P	3.71	1/3	0/9
I51V/W53V/R101W	3.93	2/3	0/9
H35N/W53P/D62E	3.98	3/3	4/9
S52A/W53D/N54L	4.00	1/3	1/9
A33L/W53I/S63V	4.00	1/3	1/9
H35C/W53M/Y105E	4.11	3/3	2/9
S52D/W53P/G56K	4.34	1/3	4/9
W53H/N54P/A61T	4.40	1/3	2/9
W53H/G59R/G103N	4.46	3/3	5/9
Y32N/I51D/W53N	4.50	1/3	0/9
F27V/W53N	4.51	2/3	5/9
W53Q/G102S	4.52	3/3	5/9
W53H/N54F/S63P	4.56	3/3	8/9
H35D/W53I/G102D	4.59	1/3	1/9
G50N/W53D/Y105F	4.62	1/3	1/9
S52M/W53Q/G59T	4.62	2/3	3/9
F29G/W53L/G102F	4.66	1/3	4/9
W53M/R101Y/Y105D	4.66	1/3	1/9
Y32D/H35A/W53P	4.93	3/3	7/9
G50C/W53K/G56T	5.13	1/3	5/9
F27S/W53C/G100H	5.21	3/3	7/9
I51G/W53C/G104F	5.42	3/3	3/9
W53T/G103D/G104A	not detected	0/3	0/9
D31N/W53I/Y105I	not detected	0/3	2/9
F29D/W53A/Y108T	not detected	0/3	3/9
W53I/I58G/D62A	not detected	0/3	0/9
I51V/W53R/A61S	not detected	0/3	0/9
W53D/S55L/G59K	not detected	0/3	0/9
S52N/W53S/S57G	not detected	0/3	0/9
H35E/W53G/G104A	not detected	0/3	0/9
D30Q/A33H/W53G	not detected	0/3	2/9
G26E/H35S/W53V	not detected	0/3	0/9
W53M/S57W/Y60M	not detected	0/3	1/9
W53N/A61H/G100T	not detected	0/3	0/9
W53N/N54R/F106S	not detected	0/3	1/9
W53V/V64L/G104N	not detected	0/3	4/9

From the list, the first 3 with no signal in any replicate:

changes,"mean, log10 nM",seen in,control signals
W53T/G103D/G104A,not detected,0/3,0/9
D31N/W53I/Y105I,not detected,0/3,2/9
F29D/W53A/Y108T,not detected,0/3,3/9

In this assay the parent's reference entry averaged 1.86; its copy inside this library read 0.88.